The values that follow come from patent publication US20040023884A1, “Biologically active peptides from functional domains of bactericidal/permeability-increasing protein and uses thereof” (priority 1993, published 2004).

Molecules are shown by their SMILES.

One test relates to RAW 264.7 cells. Kind of test: LPS neutralization cellular proliferation assay, RAW 264.7 cells. The format is cell-based, mouse. Here is the method: In this assay, mouse RAW 264.7 cells (ATCC Accession No. T1B71), maintained in RPMI 1640 media (GIBCO), supplemented with 10 mM HEPES buffer (pH 7.4), 2 mM L-glutamine, penicillin (100U/mL), streptomcin (100 μg/mL), 0.075% sodium bicarbonate, […] 2-mercaptoethanol and 10% fetal bovine serum (Hyclone, Inc., Logan, Utah), were first induced by incubation in the presence of 50U/mL recombinant mouse y-interferon (Genzyme, Cambridge, Mass.) for 24 h prior to assay. Induced cells were then mechanically collected and centrifuged at 500×g at 4° C. and then resuspended in 50 mL RPMI 1640 media (without supplements), re-centrifuged and again resuspended in RPMI 1640 media (without supplements). The cells were counted and their concentration adjusted to 2×10^5 cells/mL and 100 μL aliquots were added to each well of a 96-well microtitre plate. The cells were then incubated for about 15 hours with E. coli O113 LPS (Control Standard. Assoc. of Cape Cod. Woods Hole, Mass.), which was added in 100 μL/well aliquots at a concentration of […] in serum-free RPMI 1640 media (this concentration being the result of titration experiments in which LPS concentration was varied between 50 pg/mL and 100 ng/mL). This incubation was performed in the absence or presence of BPI functional domain peptides in varying concentrations between 25 ng/mL and 50 μg/mL. Recombinant human BPI was used as a positive control at a concentration of 1 μg/mL. Cell proliferation was quantitatively measured by the addition of 1 μCi/well [^3H]-thymidine 5 hours after the time of initiation of the assay. After the 15-hour incubation, labeled cells were harvested onto glass fiber filters with a cell harvester (Inotech Biosystems, EQ-384, Sample Processing and Filter Counting System, Lansing, Mich.).

Test [1] is described as follows: In vitro heparin-mediated lengthening of APTT / clotting time of heparinized plasma. Format: biochemical, human. The following applies: FIG. 12g. As to the method: In vitro, the effect of BPI combination functional domain peptides was determined on heparin-mediated lengthening of activated partial […] (APTT). The APTT is lengthened by the presence of endogenous or exogenous inhibitors of thrombin formation, such as therapeutically administered heparin. Thus, agents which neutralize the anti-coagulant effects of heparin will reduce the APTT measured by the test. Citrated human plasma (200 μL) was incubated for 1 minute at 37° C. with either 15 μL of diluent (0.15 M NaCl, 0.1 M Tris-HCl, pH 7.4) or 15 μL of the diluent also containing 25 μg/mL heparin (187 units/mg). Various concentrations (from 0.0 to 56 μg/mL) of rBPI23, rBPI21Δcys, or BPI combination peptides BPI.29 (the DIII homodimer) and BPI.30 (heterodimer DII+DIII) in a volume of 15 μL were added, followed immediately by 100 μL of thrombin reagent (Catalog No. 845-4, Sigma Chemical Co., St. Louis. MO). Clotting time ([…]) was measured using a BBL Fibrometer (Becton Dickenson Microbiology Systems, Cockeysville, Md.). […] FIG. 12e illustrates the results obtained with BPI.30 on a non-log scale.

For test [2], the system named is E. coli 0111:B4 (smooth) bacteria. Kind of test: Radial diffusion bactericidal assay, E. coli 0111:B4. The format is cell-based. The following applies: PROBIT analysis.
The test system of a further test is ATIII/heparin complexes. Kind of test: Thrombin inactivation by ATIII/heparin complexes (Chromostrate anti-thrombin assay). The following applies: 1.0 to 100 μg/mL. The format is biochemical. As to the method: BPI functional domain peptides BPI.2, BPI.3, BPI.4, BPI.5, BPI.6, and BPI.8, along with rBPI23 as a positive control, were assayed for their effect on thrombin inactivation by ATIII/heparin complexes according to the method of Example 3 in copending and co-assigned U.S. patent application Ser. No. 08/093,202, filed Jul. 15, 1993, incorporated by reference. Specifically, a Chromostrate™ anti-thrombin assay kit (Organon Teknika Corp., Durham, N.C.) was used to examine the inhibition of purified thrombin by preformed ATIII/heparin complexes in plasma.
Briefly, the assay was performed in 96 well microtiter plates in triplicate with a final volume per well of 200 μL. Varying concentrations of the BPI functional domain peptides ranging from 1.0 μg/mL to 100 μg/mL were assayed to determine their effect on thrombin inhibition in the presence of pre-formed ATIII/heparin complexes. […] The colorimetric reaction was quantitated on a microplate reader as described in Example 3.

The test system of test [3] is rough mutant E. coli J5 bacteria. Kind of test: Radial diffusion bactericidal assay, E. coli J5. Format: cell-based. The following applies: PROBIT analysis. Here is the method:
BPI proteolytic fragments produced according to Example 1 were screened for bactericidal effects using rough mutant E. coli J5 bacteria in a radial diffusion assay. Specifically, an overnight culture of E. coli J5 was diluted 1:50 into fresh tryptic soy broth and incubated for 3 hours at 37° C. to attain log phase growth of the culture. Bacteria were then pelleted at 3,000 rpm for 5 minutes in a Sorvall RT6000B centrifuge (Sorvall Instruments, Newton, Conn.). 5 mL of 10 mM sodium phosphate buffer (pH 7.4) was added and the preparation was re-pelleted. […] The bacteria were diluted to 4×10^6 CFU/mL in 10 mL of molten underlayer agarose (at approximately 45° C.) and inverted repeatedly to mix in 15 mL polypropylene tubes conventionally used for this purpose.
The entire contents of such tubes were then poured into a level square petri dish and distributed evenly by rocking the dish side-to-side. […] A series of wells were then punched into the hardened agarose using a sterile 3 mm punch attached to a vacuum apparatus. The punch was sterilized with 100% alcohol and allowed to air dry prior to use to avoid contaminating the bacterial culture.
5 or 10 μL of each of the BPI fragments were carefully pipetted into each well. As a negative control, dilution buffer (pH 8.3) was added to a separate well, and rBPI23 at concentrations of 5 μg/mL and 1 μg/mL were also added as positive controls. Each plate was incubated at 37° C. for 3 hours, and then 10 mL of molten overlayer agarose (at approximately 45° C.) was added into the level petri dish, allowed to harden and incubated overnight at 37° C. […] The bacterial zones were measured with a micrometer.

For `CC[C@H](C)[C@H](NC(=O)[C@H](CCCCN)NC(=O)[C@H](CCCCN)NC(=O)[C@H](Cc1c[nH]cn1)NC(=O)[C@H](Cc1ccccc1)NC(=O)[C@H](CC(C)C)NC(=O)[C@H](CCC(N)=O)NC(=O)[C@@H](NC(=O)[C@H](CC(C)C)NC(=O)[C@H](Cc1c[nH]c2ccccc12)NC(=O)CNC(=O)[C@@H](NC(=O)[C@H](CCCCN)NC(=O)[C@H](CO)NC(=O)[C@H](CCCCN)NC(=O)[C@H](CO)NC(=O)[C@@H](NC(=O)[C@H](Cc1c[nH]cn1)NC(=O)[C@@H](NC(=O)[C@H](Cc1c[nH]cn1)NC(=O)[C@@H](N)C(C)C)C(C)C)[C@@H](C)CC)C(C)C)[C@@H](C)CC)C(=O)N[C@@H](CCC(=O)O)C(=O)O` [BPI.5], in the test on RAW 264.7 cells, the “EC50 (peptide concentration at which the growth inhibitory effect of LPS was reversed by 50%)” value came out at 5.3 ± 0.6 µg/mL and the “IC50 (peptide concentration at which RAW cell growth was inhibited by 50%)” value is “— (No proliferation decrease up to 50 μg/ml)”. Besides, the “effect on the clotting time of heparinized blood (in words)” value in test [1] is listed as “less of a decrease in clotting times”. For the same compound, the “pmol added to well to achieve a 30 mm^2 bactericidal zone, E. coli O111:B4” value in test [2] is on record as 7,343.30 pmol. Besides, the “heparin neutralization effect (in words)” value in the test with ATIII/heparin complexes is on record as “most significant heparin neutralization effects”. Further, the “pmol added to well to achieve a 30 mm^2 bactericidal zone, E. coli J5” value in test [3] stood at 398.10 pmol.
